Antibody variant affinities, Ab-95 light chain, assay 2

Source: Engelhart et al. 2022 (doi:10.1038/s41597-022-01779-4), MIT Lincoln Laboratory and A-Alpha Bio; data file from the FLAb repository.

The target is the same throughout: PDVDLGDISGINAS, from the HR2 region of SARS-CoV-2 spike.

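In library AAYL52, one, two or three CDR residues were substituted; doubles and triples were drawn at random. Affinity was read by AlphaSeq, a pooled yeast mating assay with surface-displayed partners. The frequency of each diploid, read from paired DNA barcodes, reflects how well the two displayed proteins bind. The ratio of observed to expected reads was calibrated, replicate by replicate, on BCL2-family standards whose Kd was known from biolayer interferometry. Mating was done three times.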

Each scFv is VH, the linker GGGGSGGGGSGGGGS, VL, as in the parent Ab-95, and differs from it in the CDRs of the light chain only.
VH: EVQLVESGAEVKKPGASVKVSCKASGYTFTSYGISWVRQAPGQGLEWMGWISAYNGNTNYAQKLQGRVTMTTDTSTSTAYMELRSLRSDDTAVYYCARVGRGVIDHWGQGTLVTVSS
VL: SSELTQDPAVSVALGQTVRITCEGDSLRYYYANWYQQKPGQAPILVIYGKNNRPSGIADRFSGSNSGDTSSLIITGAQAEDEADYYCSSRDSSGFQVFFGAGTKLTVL

Substitutions are numbered in sequence along the VL above, starting at 1 (not Kabat).
Every variant below is changed at K50 of the VL (sequential numbering).
The read-out is the apparent dissociation constant on a log10 scale (nM): the lower, the stronger.
Averages over replicates are reported, and they cover detected replicates only.
An entry "nd" has no value in the source: the pair was not observed among the diploids in any replicate. This suggests poor binding but is not conclusive.
As a blank, each scFv also met three strains without target: over library AAYL52, 28% of these pairings were detected, typically at 3.91 and seldom below 2.90. Also given: how often the same scFv was detected with the empty control strains.

D25E/K50V/S89Y: 2.97 (3 of 3 replicates; controls 6 of 9).
G24R/K50I/S55G: nd (0 of 3 replicates; controls 2 of 9).
K50N/N51R/P54W: 3.01 (1 of 3 replicates; controls 1 of 9).
K50V/S93N/V97G: 3.52 (2 of 3 replicates; controls 0 of 9).
K50A/S55F/F98R: 3.45 (2 of 3 replicates; controls 2 of 9).
R28G/K50S/S93I: 2.02 (3 of 3 replicates; controls 5 of 9).
D25K/K50H/R90D: 3.09 (3 of 3 replicates; controls 3 of 9).
K50G/N52E/Q96W: 3.95 (3 of 3 replicates; controls 4 of 9).
Y30H/Y31K/K50S: 1.16 (3 of 3 replicates; controls 3 of 9).
K50A/S55M: 2.08 (3 of 3 replicates; controls 5 of 9).
K50A/N52W/D91S: 2.69 (3 of 3 replicates; controls 1 of 9).
Y31G/K50F/R53T: 1.18 (3 of 3 replicates; controls 3 of 9).
R28G/K50A/R53T: 2.29 (3 of 3 replicates; controls 3 of 9).
Y29H/K50Q/S55L: 1.57 (3 of 3 replicates; controls 2 of 9).
Y29L/K50Q/P54E: 2.88 (1 of 3 replicates; controls 0 of 9).
K50S/P54E/S88T: 3.44 (1 of 3 replicates; controls 3 of 9).
G24F/K50V: 3.68 (3 of 3 replicates; controls 5 of 9).
N33R/K50T: 2.89 (3 of 3 replicates; controls 3 of 9).
Y30D/A32D/K50L: 4.31 (1 of 3 replicates; controls 3 of 9).
K50R/S89Y/S93W: 3.12 (3 of 3 replicates; controls 6 of 9).
S26L/G49V/K50P: 4.19 (1 of 3 replicates; controls 1 of 9).
R28N/K50F/R53P: 4.60 (2 of 3 replicates; controls 2 of 9).
K50N/V97L: 2.13 (3 of 3 replicates; controls 3 of 9).
L27A/K50F/F98C: 4.16 (3 of 3 replicates; controls 6 of 9).
K50W/N52P/S89A: 4.46 (2 of 3 replicates; controls 2 of 9).
K50D/N51V/R90N: 3.31 (2 of 3 replicates; controls 6 of 9).
K50H/R53E/G94K: nd (0 of 3 replicates; controls 3 of 9).
Y30K/K50L/Q96F: 1.48 (3 of 3 replicates; controls 3 of 9).
D25M/K50H/Q96N: 2.32 (3 of 3 replicates; controls 4 of 9).
S26K/K50T/Q96L: nd (0 of 3 replicates; controls 2 of 9).
D25I/K50D/S88P: 1.94 (3 of 3 replicates; controls 4 of 9).
L27Y/K50M/Q96T: 3.94 (2 of 3 replicates; controls 4 of 9).
K50Y/S89G/F98H: 3.00 (3 of 3 replicates; controls 4 of 9).
G24S/Y30H/K50D: 0.75 (3 of 3 replicates; controls 5 of 9).
D25K/K50C/S92K: 2.49 (3 of 3 replicates; controls 1 of 9).
E23H/K50G/S55E: 1.42 (3 of 3 replicates; controls 2 of 9).
K50G/G94T: 4.33 (1 of 3 replicates; controls 1 of 9).
K50G/S55E/S92Y: 1.70 (3 of 3 replicates; controls 4 of 9).

Excerpt, the final 6 entries:

K50Y/S89G/F98H: 3.00 (3 of 3 replicates; controls 4 of 9).
G24S/Y30H/K50D: 0.75 (3 of 3 replicates; controls 5 of 9).
D25K/K50C/S92K: 2.49 (3 of 3 replicates; controls 1 of 9).
E23H/K50G/S55E: 1.42 (3 of 3 replicates; controls 2 of 9).
K50G/G94T: 4.33 (1 of 3 replicates; controls 1 of 9).
K50G/S55E/S92Y: 1.70 (3 of 3 replicates; controls 4 of 9).